Reference: BindingDB's records for doi:10.1021/jm960062t (Eli Lilly, 1996)

Target: 5-hydroxytryptamine receptor 2C (Homo sapiens) (UniProt P28335)
Experiment: Binding affinity analysed on 5-HT 2C in human clone using [3H]mesulergine as radioligand

Work on `Cn1ccc2cc3c(cc21)CCN3C(=O)Nc1cccnc1` yielded a Ki of 10 nM.
`Cc1cc(NC(=O)Nc2ccc3c(ccn3C)c2)sn1` [CAS_3277600] gave a Ki of 1510 nM.
